{"source": "patent US6586946B2", "about": "“System and method for detecting and identifying molecular events in a test sample using a resonant test structure” (Signature BioScience, Inc., priority 2000, dated 2003)", "test": "Resonant frequency shift of coaxial resonator coupled to protein solution versus PBS buffer (S11 return loss)", "assay_type": "physicochemical", "settings": "protein solution in PTFE tube; reference PBS pH 7.4; input test signal approximately 1 GHz, 100 KHz band", "protocol": "Using the systems and methods of the present invention, several experiments were performed to detect and identify molecular events in a solution. […] The vector network analyzer used was model number HP 8714 manufactured by Agilent Technologies, Inc. (Palo Alto, Calif.) The computer is an HP Vectra computer (Hewlett Packard Company, Palo Alto, Calif.) executing a graphically user interface (LabView® platform) to control the operation of the network analyzer and to display the resulting data. The coaxial resonator 122 illustrated in FIG. 3A was used in the experiments to illuminate the reference and test samples. […]\nIn the reference measurement, PBS buffer was introduced into the tube and transported to the detection region, and a S11 (return loss) measurement of the resonator was taken. […] From the measured S11 response, the resonant frequency fres and Q-factor of the resonator were computed and stored, as described above.\nNext, each of the aforementioned protein solutions were introduced into the tube and transported to the detection region. The resonator's S11 response was measured (over the same frequency range as above) and the corresponding resonant frequency fres and Q-factor parameters derived therefrom. […] This quantity was subsequently plotted versus the resonator's measured Q-factor when electromagnetically coupled to the test sample. […]", "data": [{"substance": "bovine serum albumin [BSA]", "values": [{"measurement": "change in resonant frequency of the resonator (relative to the PBS buffer)", "result": "~7.5", "unit": "KHz"}]}]}
